Data from patent US20180346555A1 (Regeneron, published 2018).

Target: T1, Hazel (Cor A 1, MyBiosource, Cat# MBS5304600) (Hazel, UniProt Q08407 2-160, limits assumed)
T1 construct: Bought reagent
T1 sequence (looked up): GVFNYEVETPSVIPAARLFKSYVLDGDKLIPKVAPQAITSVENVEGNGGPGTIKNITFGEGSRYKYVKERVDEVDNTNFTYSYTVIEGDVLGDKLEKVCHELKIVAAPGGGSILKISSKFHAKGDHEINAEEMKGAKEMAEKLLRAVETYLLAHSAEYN
Assay: SPR Biacore 4000, mAb captured by anti-human Fc, 25 C;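 note: allergen analyte binding to captured, purified anti-Bet v 1 monoclonal antibodies, SPR in HEPES-buffered saline running buffer with EDTA and Tween-20 at pH 7.4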

Kd: 396 nM
B1: H4H17082P2 (antibody, human IgG4 S228P, kappa, V domains shown)
VH: QVQLVQSGAEVKKPGASVKVSCKASGYTFISYNIFWVRQATGQGLDWMGWMNPFRNNAGYAQKFQGRVTVTWDTSISTAYMELSSLSSEDTAIYYCAREHGSSWGFFDYWGQGTLVTVSS
VL: not shown
notes: human IgG4 Fc; also called REGN5715; MAB2
